Experimental findings from patent US8552068B2, “Compositions and methods” (priority 2004, dated 2013) are described below.

The assay deals with Artificially-ventilated pentobarbital anesthetised rabbits. The experiment in a line: Intravenous infusion of carrier solutions saturated with pure nitric oxide gas; exhaled NO and MAP. As to conditions: for effect as NO carrier / NO delivering capacity (words): compared to the saline control.

Entries after “also recorded” stand apart in the source; their conditions may differ.

Take `CCCO` [Carrier 1-Propanol, 1-Propanol]: the “effect as NO carrier / NO delivering capacity (words)” value is given as “noticeable effect; also recorded: marked effect”. Besides, the “MAP, Change (absolute value)” value (infusion versus pre-infusion) was −10.3 cmH2O.

On to Albumin [Albumin (20%)], for which the “effect as NO carrier / NO delivering capacity (words)” value is reported as “noticeable effect”. Also, where the note is “infusion versus pre-infusion”, the “Exhaled NO, Change (%)” value came to 4%; the “Exhaled NO, Change (absolute value)” value is 0.6 ppb; the “MAP, Change (%)” value is reported as −31%; the “MAP, Change (absolute value)” value is −32.4 cmH2O.
